Assay results as given in patent publication US10172951B2, “Dendrimer based nanodevices for therapeutic and imaging purposes” (priority 2009, dated 2019).

Assays:
Solubility in PBS/H2O = assay type: physicochemical
[1] = Transmembrane transport and permeability, chorioamnion; assay type: in vitro ADME, human; conditions: chorioamnion (intact membrane)
Text: (§1) All human fetal membrane specimens were obtained at the time of cesarean section for obstetrical indications. The fetal membrane comprising chorioamniotic membrane (intact membranous tissue containing both amnion and chorion together) (n=7) and amnion (n=7) and chorion (n=7) were separately procured (size 6×9″). Each membrane was cut into 9 pieces for the 9 sets of diffusion chamber. The fresh membranes were collected immediately after the delivery, washed with PBS to remove the blood and stored in PBS until (˜1 h at 4° C.) it was mounted on the diffusion chamber (37±0.5° C.). Excess membranes were trimmed. […] Further, some sections were analyzed by hematoxylin and eosin (H & E) staining. The membrane thickness was measured using the Mitutoyo Super Caliper by placing the respective membranes between the two glass slides and subtracting the thickness of the glass slides without the membrane.
(§2) Permeation experiments were carried out using a two-chamber (donor and receptor) side-by-side Permegear diffusion cell with a chamber volume of 3 mL and with a diameter of 13 mm and a diffusional area of 1.32 cm^2. […] The donor cell (volume 3 mL) was filled with solution of compounds whose permeability was evaluated. […] The concentration of compound in the receptor medium was determined using a Molecular Devices SpectroMax M2, UV visible and Fluorescent plate reader at ex 495/em 521. […]

[2] = Transmembrane transport and permeability, amnion; assay type: in vitro ADME, human; conditions: amnion alone
Text: as §1, §2

[3] = Transmembrane transport and permeability, chorion; assay type: in vitro ADME, human; conditions: chorion alone
Text: as §1, §2

For “fluorescein isothiocyanate [FITC, reference compound]”, the “Solubility in PBS/H2O” value (Solubility in PBS/H2O) was “Not soluble and Not”, the “permeability relative to G4-PAMAM-dendrimer” value [1] was 10 fold and the “permeability relative to G4-PAMAM-dendrimer” value [2] was 100 folds. For the same substance, the “permeability relative to G4-PAMAM-dendrimer” value [3] was 100 folds.
